C2C12 statin: suppressors of simvastatin-induced myotoxicity in C2C12 myotubes. ATP luminescence, 48 h; scaled: DMSO 0, geranylgeraniol control 100. rescue of ATP level, % at 7.49 µM. 0.78% of 330,000 active. AID 602340;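 active = mean ATP rescue above about 67%, or every replicate alone reaching that limit, limit read from the data, passing the limit was not always enough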;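 also: myotubes were challenged with 10 µM simvastatin during compound exposure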
CDK5 inh: blocks human CDK5/p35 kinase activity | Recombinant CDK5/p35, ADP-Glo luminescence, 60 min | AID 488839 | 0.01% of 330,000 active | inhibition, % at 10 µM | Q00535+Q15078;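 active = highest replicate inhibition of at least 50% and at least 75% of replicates reaching 50%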
Yeast UUG start: alters start codon recognition fidelity in yeast. S. cerevisiae UUG-firefly luciferase reporter, luminescence/redox ratio. AID 602363. activity score, % at 18.7 µM. hit rate 0.13% among 350,000;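 active = replicate mean at a twofold rise or more, about +100% in these data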;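 note: firefly luciferase made from a UUG start codon reports start codon fidelity; reporter light over untreated wells divided by growth signal over untreated wells; some hits fall short of that in this replicate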
Rtt109 HAT inh: inhibitors of Candida albicans Rtt109/Vps75 histone acetyltransferase; AID 540336; 0.16% of 330,000 active; inhibition, % at 34.9 µM; purified Rtt109/Vps75, ThioGlo CoA-SH fluorescence, 4 h; Q5AAJ8;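 active = inhibition of at least 50% in every replicate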
Cneo AK release: Cryptococcus neoformans lysis via adenylate kinase release | AID 651654 | C. neoformans lysis, adenylate kinase release luminescence, 4 h; normalised: neutral wells 0, clomiphene wells 100 | 0.2% of 360,000 active | lysis activity, % at 15 µM;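 active = mean lysis activity across replicates of at least 80%, whatever share of replicates individually reach that level; inactive = mean lysis activity below 80%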
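Assay system: log-phase C. neoformans yeast / Quantity: yeast cell density of 5 × 10^6 cells/mL / Medium: fresh YPD growth medium / Compound: single dose / Timing: static 4 h at 37 °C with compound, 1 h detection / Measured by: adenylate kinase release luminescence / Read-out: lysis from increased AK signal / Benchmarks: Clomiphene as positive lysis control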
Of the large screens only hits and unclear results are named; the others gave an inactive call. Hits are enriched below; roughly 1% of the tested compounds scored in any of these assays.

C[C@H](CO)N1C[C@H](C)[C@@H](CN(C)Cc2ccc(C(F)(F)F)cc2)Oc2ccc(NS(=O)(=O)c3ccc(F)cc3)cc2CC1=O	C2C12 statin 83 (no result: CDK5 inh, Rtt109 HAT inh)
Cc1ccc(S(=O)(=O)Nc2ccc3c(c2)CC(=O)N([C@@H](C)CO)C[C@H](C)[C@H](CN(C)Cc2ccc(C(F)(F)F)cc2)O3)cc1	none (no result: CDK5 inh, Yeast UUG start, Rtt109 HAT inh, Cneo AK release)
C[C@H](CO)N1C[C@H](C)[C@H](CN(C)Cc2ccc(C(F)(F)F)cc2)Oc2ccc(NS(=O)(=O)c3ccc(F)cc3)cc2CC1=O	none (no result: CDK5 inh, Rtt109 HAT inh)
CO[C@@H]1CN(C)C(=O)c2ccc(NS(=O)(=O)c3ccccc3Cl)cc2OC[C@H](C)NC[C@@H]1C	none (no result: CDK5 inh, Rtt109 HAT inh)
Cc1c(OC(C)C(=O)NCC2CCC(C(=O)O)CC2)ccc2c3c(c(=O)oc12)CCCC3 (configuration not stated)	C2C12 statin 95
CCCC#Cc1cnc2c(c1)C(=O)N([C@H](C)CO)C[C@H](C)[C@H](CN(C)Cc1ccncc1)O2	none (no result: CDK5 inh, Rtt109 HAT inh)
Cc1cc(C)cc(NC(=O)c2ccc(CSc3nnc(C)s3)cc2)c1	C2C12 statin 122
Cc1ccc(NC(=O)c2ccc(CSc3nnc(C)s3)cc2)cc1	none (no result: C2C12 statin)
CCC(=O)N1C[C@@H](C)[C@H](OC)CN(C)C(=O)c2cc(NC(=O)Nc3cccc(F)c3)ccc2OC[C@H]1C	none (no result: CDK5 inh, Rtt109 HAT inh)
C[C@H](O)C#Cc1ccc2c(c1)O[C@H](CN(C)C(=O)Cc1ccccn1)[C@@H](C)CN([C@@H](C)CO)S2(=O)=O	none (no result: C2C12 statin, CDK5 inh, Rtt109 HAT inh)
O=C(Nc1ccc(NC(=O)c2ccco2)nc1)c1ccccn1	C2C12 statin 113
COc1ccc(CC(=O)Nc2ccc(-c3cn4ccccc4n3)cc2)cc1	C2C12 statin 111
COCC#Cc1ccc2c(c1)O[C@H](CN(C)C(=O)CN(C)C)[C@H](C)CN([C@@H](C)CO)S2(=O)=O	none (no result: CDK5 inh, Rtt109 HAT inh)
O=C(C[C@H]1C[C@H]2c3cc(NC(=O)NC4CCCCC4)ccc3O[C@H]2[C@H](CO)O1)NCC1CC1	none (no result: CDK5 inh, Rtt109 HAT inh)
COc1ccc(/C=C2\N=C(SC)SC2=O)cc1OC	C2C12 statin 107
COc1ccc(NC(=O)Nc2ccc3c(c2)[C@@H]2C[C@H](CC(=O)NCC4CC4)O[C@@H](CO)[C@@H]2O3)cc1	none (no result: CDK5 inh, Rtt109 HAT inh)
Cc1ccc(Nc2nc3nonc3nc2N(C)C)cc1	C2C12 statin 88 (no result: Rtt109 HAT inh)
C[C@@H]1CN([C@H](C)CO)C(=O)c2cccc(NC(=O)Nc3ccccc3)c2O[C@H]1CN(C)S(=O)(=O)c1cccs1	none (no result: C2C12 statin, CDK5 inh, Rtt109 HAT inh, Cneo AK release)
CCOC(=O)c1sc(NC(=O)c2c(C)nn(Cc3ccccc3)c2C)cc1C	C2C12 statin 102
CCN(Cc1ccccc1)S(=O)(=O)c1ccc(OC)c2ncccc12	none (no result: C2C12 statin)
CCCCN(CCCC)S(=O)(=O)c1ccc(OC)c2ncccc12	C2C12 statin 66
COc1ccc(S(=O)(=O)N(CC(C)C)CC(C)C)c2cccnc12	C2C12 statin 154
CCOC(=O)C1=C(C)NC2=C(C(=O)c3ccccc32)C1c1cccc2ccccc12 (configuration not stated)	none
CCN1C(=O)NC2=C(C(=O)c3ccccc32)C1c1ccccc1F (configuration not stated)	C2C12 statin 120
CO[C@H]1CN(C)C(=O)c2ccc(NC(=O)Nc3ccccc3)cc2OC[C@H](C)N(CC2CC2)C[C@H]1C	none (no result: CDK5 inh, Rtt109 HAT inh)
COc1ccc(OC(=O)N(C)C[C@H]2OCc3ccccc3-c3ccccc3C(=O)N([C@@H](C)CO)C[C@H]2C)cc1	none (no result: CDK5 inh, Yeast UUG start, Rtt109 HAT inh)
CCCC(CCC(=O)Nc1ccc(C(=O)OCC)cc1)C(=O)O (configuration not stated)	C2C12 statin 105
CCCC(CCC(=O)Nc1ccc(C(=O)OC)cc1)C(=O)O (configuration not stated)	none
O=C(O)C1CCc2sc3[nH]c(=S)n(-c4ccccc4)c(=O)c3c21 (configuration not stated)	Rtt109 HAT inh 105 (no result: C2C12 statin)
c1cncc(-c2nc(NCc3ccco3)c3ccccc3n2)c1	C2C12 statin 94
Cc1ccc(-c2nc(NCc3ccco3)c3ccccc3n2)cc1	none (no result: Yeast UUG start, Cneo AK release)
C[C@@H]1CN([C@@H](C)CO)C(=O)c2cc(NS(=O)(=O)c3cn(C)cn3)ccc2O[C@H]1CN(C)CC1CC1	none (no result: CDK5 inh, Rtt109 HAT inh)
COc1ccc(NC(=O)Nc2ccc3c(c2)C(=O)N([C@H](C)CO)C[C@H](C)[C@H](CN(C)S(=O)(=O)c2ccc(Cl)cc2)OCCCC[C@@H](C)O3)cc1	none (no result: C2C12 statin, CDK5 inh, Rtt109 HAT inh)
COc1ccc(S(=O)(=O)Nc2ccc3c(c2)C(=O)N([C@H](C)CO)C[C@@H](C)[C@@H](CN(C)S(=O)(=O)c2ccc(F)cc2)OCCCC[C@H](C)O3)cc1	C2C12 statin 141 (no result: CDK5 inh, Rtt109 HAT inh)
COc1ccc(NC(=O)Nc2ccc3c(c2)C(=O)N([C@H](C)CO)C[C@@H](C)[C@@H](CN(C)S(=O)(=O)c2ccc(Cl)cc2)OCCCC[C@H](C)O3)cc1	Cneo AK release 96 (no result: C2C12 statin, CDK5 inh, Rtt109 HAT inh)
COc1ccc(S(=O)(=O)N(C)C[C@@H]2OCCCC[C@@H](C)Oc3ccc(NS(=O)(=O)c4ccc(F)cc4)cc3C(=O)N([C@H](C)CO)C[C@@H]2C)cc1	none (no result: CDK5 inh, Rtt109 HAT inh)
COc1ccc(S(=O)(=O)Nc2ccc3c(c2)C(=O)N([C@@H](C)CO)C[C@H](C)[C@H](CN(C)S(=O)(=O)c2ccc(F)cc2)OCCCC[C@H](C)O3)cc1	C2C12 statin 174 (no result: CDK5 inh, Rtt109 HAT inh)
CCCNC(=O)N1[C@H](CN(C)C(C)=O)[C@@H](c2ccc(C3=CCCC3)cc2)[C@@H]1CO	none (no result: CDK5 inh, Rtt109 HAT inh)
C[C@@H]1CCCCO[C@H](CN(C)C(=O)Nc2ccc(F)cc2)[C@H](C)CN([C@@H](C)CO)C(=O)c2cc(NC(=O)Cc3ccccc3)ccc2O1	C2C12 statin 87 (no result: CDK5 inh, Rtt109 HAT inh)
C[C@H](CO)N1C[C@H](C)[C@@H](CN(C)S(=O)(=O)c2ccccc2)OCCCC[C@H](C)Oc2ccc(N(C)C)cc2C1=O	C2C12 statin 92 (no result: CDK5 inh, Rtt109 HAT inh)
C[C@H]1CCCCO[C@H](CN(C)C(=O)Nc2ccc(F)cc2)[C@@H](C)CN([C@@H](C)CO)C(=O)c2cc(NC(=O)Cc3ccccc3)ccc2O1	none (no result: CDK5 inh, Rtt109 HAT inh)
C[C@@H]1CCCCO[C@@H](CN(C)S(=O)(=O)c2cccs2)[C@H](C)CN([C@@H](C)CO)C(=O)c2cc(NC(=O)Nc3ccc(F)cc3)ccc2O1	C2C12 statin 84 (no result: CDK5 inh, Rtt109 HAT inh)
C[C@@H]1CCCCO[C@H](CN(C)S(=O)(=O)c2cccs2)[C@@H](C)CN([C@@H](C)CO)C(=O)c2cc(NC(=O)CCC(F)(F)F)ccc2O1	Cneo AK release 94 (no result: C2C12 statin, CDK5 inh, Rtt109 HAT inh)
C[C@@H]1CN([C@H](C)CO)C(=O)c2cc(N(C)C)ccc2O[C@@H](C)CCCCO[C@@H]1CN(C)S(=O)(=O)c1ccccc1	none (no result: CDK5 inh, Rtt109 HAT inh)
CC=Cc1ccc2n(c1=O)C[C@H]1[C@H](CO)[C@@H](C(=O)NCc3ccc(F)cc3)N(Cc3cncnc3)[C@@H]21 (mixture of isomers)	none (no result: CDK5 inh, Yeast UUG start, Rtt109 HAT inh)
C[C@@H]1CN([C@H](C)CO)C(=O)c2cc(NC(=O)Cc3ccccc3)ccc2O[C@@H](C)CCCCO[C@@H]1CN(C)S(=O)(=O)c1ccc(F)cc1	none (no result: CDK5 inh, Rtt109 HAT inh)

High-throughput results: PubChem, Broad Institute
